This passage reports Fold induct. (arrestin recruitment, beta-galactosidase EFC, saturating ligand) results from patent US20090098588A1.

By UniProt entry, the sequences of proteins in these tests, tags left out. Where a name states a change or a piece, a line headed by the entry shows the natural chain unless it says otherwise.
UniProt P30872: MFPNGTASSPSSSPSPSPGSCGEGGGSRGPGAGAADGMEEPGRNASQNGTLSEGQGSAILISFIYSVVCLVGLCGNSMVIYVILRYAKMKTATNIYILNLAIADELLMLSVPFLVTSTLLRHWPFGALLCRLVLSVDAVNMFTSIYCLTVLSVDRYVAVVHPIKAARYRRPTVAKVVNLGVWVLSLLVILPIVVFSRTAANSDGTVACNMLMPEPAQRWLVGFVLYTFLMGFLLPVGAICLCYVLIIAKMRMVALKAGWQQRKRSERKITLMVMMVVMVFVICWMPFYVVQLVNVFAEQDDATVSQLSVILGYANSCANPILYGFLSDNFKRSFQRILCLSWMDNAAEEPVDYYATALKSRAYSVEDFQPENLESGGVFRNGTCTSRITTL
UniProt P31391: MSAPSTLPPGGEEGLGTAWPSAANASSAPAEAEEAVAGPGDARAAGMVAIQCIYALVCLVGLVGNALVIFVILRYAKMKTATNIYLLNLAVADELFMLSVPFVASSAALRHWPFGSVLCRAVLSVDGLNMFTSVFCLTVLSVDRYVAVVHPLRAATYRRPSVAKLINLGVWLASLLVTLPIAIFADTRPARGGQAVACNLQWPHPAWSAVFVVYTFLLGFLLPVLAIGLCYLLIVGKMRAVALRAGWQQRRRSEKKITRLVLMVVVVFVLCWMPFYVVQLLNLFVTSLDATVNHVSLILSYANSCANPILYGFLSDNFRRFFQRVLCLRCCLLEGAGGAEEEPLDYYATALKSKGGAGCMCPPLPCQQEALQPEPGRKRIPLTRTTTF
UniProt P61278: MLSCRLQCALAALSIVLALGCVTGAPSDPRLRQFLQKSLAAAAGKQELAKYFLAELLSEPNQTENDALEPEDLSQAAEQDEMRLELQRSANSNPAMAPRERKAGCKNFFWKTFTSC

Some targets named below: SSTR1 fused to PK1 (UniProt P30872); SSTR1 fused to PK2 (UniProt P30872); SSTR4 fused to PK1 (UniProt P31391); SSTR4 fused to PK2 (UniProt P31391).
Assay in all cases: cell-based or functional assay

Take “Somatostatin-14 (from UniProt P61278 103-116) (peptide)”: the Fold induct. (arrestin recruitment, beta-galactosidase EFC, saturating ligand) with SSTR1 fused to PK1 stood at 1 fold; with SSTR1 fused to PK2, 1.5 fold; with SSTR4 fused to PK1, 1.5 fold; with SSTR4 fused to PK2, 1.6 fold.
On to “[TYR1] Somatostatin 14 (from UniProt P61278 103-116) (peptide)”, for which, in the test with SSTR1 fused to PK2, the Fold induct. (arrestin recruitment, beta-galactosidase EFC, saturating ligand) was found to be 2.2 fold.
